The numbers were not newly measured in PMC9027176 (Viruses, 2022), which cites them from elsewhere.

Each structure is given as a SMILES string.

The subject of one series is Mcl-1. On the set-up: method as in ref 46 = [46]. The note with it: affinity measured by SPR; cited from earlier work.
The next series has as its target FPV039. Set-up: method as in ref 49 = [49]. Conditions: Isothermal Titration Calorimetry; read-out: Affinity (nM), FPV039; cited from earlier work.
Another series concerns the target M11. The note with it: read-out: Affinity (nM), M11; Isothermal Titration Calorimetry; cited from earlier work. (ITC needs no label: the signal is the heat of the interaction.)

For the compound `CSCC[C@H](NC(=O)[C@H](CCCNC(=N)N)NC(=O)[C@H](CCCNC(=N)N)NC(=O)[C@H](CC(C)C)NC(=O)[C@H](CCC(=O)O)NC(=O)[C@H](CCCNC(=N)N)NC(=O)CNC(=O)[C@H](Cc1ccc(O)cc1)NC(=O)[C@H](CCCNC(=N)N)NC(=O)[C@H](CCC(N)=O)NC(=O)[C@H](C)NC(=O)[C@H](C)NC(=O)[C@H](Cc1c[nH]c2ccccc12)NC(=O)[C@H](CC(C)C)NC(=O)[C@@H](N)CC(N)=O)C(=O)N[C@@H](CO)C(=O)N[C@@H](CC(=O)O)C(=O)N[C@@H](CCC(=O)O)C(=O)N[C@@H](Cc1ccccc1)C(=O)N[C@H](C(=O)N[C@@H](CC(=O)O)C(=O)N[C@@H](CO)C(=O)N[C@@H](Cc1ccccc1)C(=O)N[C@@H](CCCCN)C(=O)N[C@@H](CCCCN)C(=O)NCC(=O)O)C(C)C` [Bad], the “Affinity (nM), Mcl-1” value in the series with Mcl-1 is reported as >100,000 nM. In addition, the Kd on FPV039 was 653 nM.

Consider `CC[C@H](C)[C@H](NC(=O)[C@H](CS)NC(=O)[C@H](CCC(N)=O)NC(=O)[C@H](CC(C)C)NC(=O)[C@H](CCCCN)NC(=O)[C@H](CCCNC(=N)N)NC(=O)[C@H](C)NC(=O)[C@@H](NC(=O)[C@H](CCC(N)=O)NC(=O)[C@@H](NC(=O)[C@H](CCC(=O)O)NC(=O)[C@H](C)NC(=O)[C@H](CCC(N)=O)NC(=O)[C@H](Cc1c[nH]cn1)NC(=O)[C@@H](N)CCC(N)=O)C(C)C)[C@@H](C)CC)C(=O)N[C@@H](C)C(=O)N[C@@H](CC(=O)O)C(=O)N[C@@H](CCC(N)=O)C(=O)N[C@@H](Cc1ccccc1)C(=O)N[C@@H](Cc1c[nH]cn1)C(=O)N[C@@H](CCCNC(=N)N)C(=O)N[C@@H](CC(C)C)C(=O)N[C@@H](Cc1c[nH]cn1)C(=O)N[C@H](C(=O)N[C@@H](CCC(N)=O)C(=O)N[C@@H](CCC(N)=O)C(=O)O)C(C)C` [Bmf], for which the “Affinity (nM), Mcl-1” value in the series on Mcl-1 was 1100 nM. Further, the Kd at FPV039 was 254 nM; at M11, 300 nM.
